# AlphaSeq binding of Ab-14 light chain variants to a spike HR2 peptide

Data: MIT Lincoln Laboratory AlphaSeq set, Engelhart et al. 2022, doi:10.1038/s41597-022-01779-4, as distributed in FLAb.

Binding partner: SARS-CoV-2 spike HR2 peptide, sequence PDVDLGDISGINAS.

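The starting antibody came from a phage panning campaign against this peptide. Variants in AAYL50 differ from the parent at up to three CDR positions; double and triple changes were sampled at random. The scFvs were displayed on barcoded MATa yeast, the peptide on MATalpha yeast. Pairs that bind mate more often; barcode pairs of the diploids are counted by sequencing. Scores were corrected for input abundance and mapped to Kd with protein pairs of known affinity run in the same pool. The assay was run in three technical replicates.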

Parent: Ab-14, a human scFv built as VH, a 15-residue (Gly4Ser)3 linker, VL. Only the CDRs of the light chain vary.
VH: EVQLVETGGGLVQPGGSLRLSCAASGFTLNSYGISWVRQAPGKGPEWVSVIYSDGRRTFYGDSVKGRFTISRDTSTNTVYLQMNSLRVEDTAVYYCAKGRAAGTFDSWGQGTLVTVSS
VL: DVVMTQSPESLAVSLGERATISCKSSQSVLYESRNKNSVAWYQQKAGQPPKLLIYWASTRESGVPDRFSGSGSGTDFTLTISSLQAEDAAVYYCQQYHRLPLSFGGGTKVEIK

Substitutions are numbered in sequence along the VL above, starting at 1 (not Kabat). All variants listed here change Q27 of the VL, counted from its first residue. The read-out is the apparent dissociation constant on a log10 scale (nM): the lower, the stronger. A mean of the replicates is given; it leaves out those without a signal. A pair that was not seen in any replicate is written "no signal"; this usually means weak binding, but a binder can also be missed. In this assay the parent's reference entry averaged 0.65; its copy inside this library read 1.68. Background: pairings of library AAYL50 with three empty control strains gave a value in 18% of cases (median 4.19, 5th percentile 2.99). Values in that range, when seen in few replicates, are hard to tell from nonspecific mating.

| changes | mean log10 Kd (nM) | detected |
|---|---|---|
| Q27Y+E32S+S33R | 3.57 | 3/3 |
| S26E+Q27N+Y97R | 0.77 | 3/3 |
| Q27K+L30N+S58H | 1.53 | 3/3 |
| Q27Y+E61N+Q96I | 1.89 | 3/3 |
| Q27P+A57W+T59P | no signal | 0/3 |
| Q27S+N37E+A57W | 4.86 | 2/3 |
| Q27S+P101W | 2.28 | 3/3 |
| S26C+Q27C+N35H | no signal | 0/3 |
| Q27L+W56F+Q95F | 5.07 | 1/3 |
| Q27T+A40V+T59C | no signal | 0/3 |
| Q27N+V39S | 3.67 | 2/3 |
| S25W+Q27G+A57L | 2.11 | 3/3 |
| Q27S+P101V | 3.44 | 3/3 |
| Q27M+L30A+W56G | -0.20 | 3/3 |
| S26C+Q27T+A57E | no signal | 0/3 |
| Q27K+W56P | no signal | 0/3 |
| Q27N+A40H+R99S | no signal | 0/3 |
| Q27T+E61V+S62A | 0.57 | 3/3 |
| Q27Y+N35I+Q95A | 2.26 | 3/3 |
| Q27F+L30T+L102W | 3.96 | 3/3 |
| Q27F+S103K | 2.53 | 3/3 |
| K24W+Q27A+S58F | 2.95 | 1/3 |
| Q27I+S62L+L100F | 1.54 | 3/3 |
| Q27T+N35S+V39N | no signal | 0/3 |
| Q27E+L30N+E61W | 1.26 | 3/3 |
| Q27P+R34K+S38E | 3.40 | 3/3 |
| Q27D+L30T+E32S | 1.04 | 3/3 |
| Q27S+N35L+R99I | no signal | 0/3 |
| Q27E+V29C+K36H | 1.17 | 3/3 |
| Q27T+N37K+S38W | no signal | 0/3 |
| Q27G+S33I+T59M | 2.90 | 2/3 |
| Q27I+A40T+H98C | no signal | 0/3 |
| Q27F+E32R+S62H | 3.27 | 3/3 |
| S26R+Q27W+Q95Y | 4.75 | 1/3 |
| Q27C+S28A+V29D | 0.80 | 3/3 |
| Q27T+K36E+S38P | 0.75 | 3/3 |
| Q27N+N37T+R99A | 2.27 | 3/3 |
| Q27I+L30P | 0.99 | 3/3 |
| Q27L+E32P+S33L | 1.48 | 3/3 |
| Q27D+T59L+S62C | 1.75 | 3/3 |
| Q27R+W56Y+H98P | 1.41 | 3/3 |
| Q27A+A57F+R60I | 5.05 | 1/3 |
| K24M+Q27D+Q95I | 4.86 | 2/3 |
| Q27I+S28R+R99L | 2.74 | 3/3 |
| Q27N+Y31S+N35L | 0.57 | 3/3 |
| S25R+Q27V+S33R | 4.82 | 1/3 |
| Q27S+S33T | 1.12 | 3/3 |
| Q27W+K36Y+A40H | no signal | 0/3 |
| S26L+Q27N+P101K | no signal | 0/3 |
| Q27S+R60H+H98Q | 3.69 | 3/3 |
| K24A+Q27N+T59S | 2.40 | 3/3 |
| Q27W+R60T+R99M | no signal | 0/3 |
| Q27M+H98L+P101L | no signal | 0/3 |
| K24Y+Q27R+K36F | 1.95 | 3/3 |
| Q27E+Y31W+R34Y | 3.36 | 3/3 |
| Q27K | 1.11 | 3/3 |
| Q27C+A40P+R60A | no signal | 0/3 |
| Q27D+R60K+L102T | 2.45 | 3/3 |
| Q27A+V29S+Y97S | no signal | 0/3 |
| S25M+Q27W+H98V | 0.21 | 3/3 |

The opening 6 entries, copied out:

{"changes": "Q27Y+E32S+S33R", "mean log10 Kd (nM)": "3.57", "detected": "3/3"}
{"changes": "S26E+Q27N+Y97R", "mean log10 Kd (nM)": "0.77", "detected": "3/3"}
{"changes": "Q27K+L30N+S58H", "mean log10 Kd (nM)": "1.53", "detected": "3/3"}
{"changes": "Q27Y+E61N+Q96I", "mean log10 Kd (nM)": "1.89", "detected": "3/3"}
{"changes": "Q27P+A57W+T59P", "mean log10 Kd (nM)": "no signal", "detected": "0/3"}
{"changes": "Q27S+N37E+A57W", "mean log10 Kd (nM)": "4.86", "detected": "2/3"}